AlphaSeq binding of Ab-95 light chain variants to a spike HR2 peptide

Target: peptide PDVDLGDISGINAS, taken from heptad repeat 2 (HR2) of SARS-CoV-2 spike.

Parent scFv Ab-95: VH joined to VL by a 15-residue (Gly4Ser)3 linker. Changes lie in the light chain CDRs alone.
VH: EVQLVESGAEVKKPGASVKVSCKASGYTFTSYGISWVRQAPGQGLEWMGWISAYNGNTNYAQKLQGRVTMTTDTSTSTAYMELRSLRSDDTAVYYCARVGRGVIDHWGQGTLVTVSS
VL: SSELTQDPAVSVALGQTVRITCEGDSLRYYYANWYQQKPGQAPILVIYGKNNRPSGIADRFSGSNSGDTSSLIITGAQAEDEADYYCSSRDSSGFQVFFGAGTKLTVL

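The library (AAYL52) carries one to three amino acid substitutions per variant, with no insertions or deletions. AlphaSeq pools MATa yeast showing the antibodies with MATalpha yeast showing the peptide. Mating (16 h, 30 °C) was followed by selection of diploids and sequencing of their barcodes. The ratio of observed to expected reads was calibrated, replicate by replicate, on BCL2-family standards whose Kd was known from biolayer interferometry. Mating was done three times.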

The parent's light chain CDRs are EGDSLRYYYAN, GKNNRPS, SSRDSSGFQVF; each variant's own CDRs replace them letter for letter. All variants listed here change N52 of the VL, counted from its first residue. Affinities are written as log10 Kd with Kd in nM; a lower number is a better binder. A mean of the replicates is given; it leaves out those without a signal. "nd" marks a missing value. The strain was present, yet no cells mated with the target were sequenced in that replicate, which points to weak or no binding. Nonspecific signal, from three strains lacking the peptide, appeared in 28% of pairings of library AAYL52, centred on 3.91 (5% of these signals below 2.90); values are not corrected for it. For each scFv, signals with the empty controls are counted beside the result.

* EGDSLRYYYAN | GKNCRPS | SSRDSSGFQQK: 4.33, 4.55, nd (mean 4.44; controls 2 of 9)
* EGTSLRYYYAN | GKNRRPS | YSRDSSGFQVF: 3.39, 3.71, 3.67 (mean 3.59; controls 5 of 9)
* EGGSLRYYYAN | GKNFRPS | SSLDSSGFQVF: 2.55, 3.35, 1.99 (mean 2.63; controls 2 of 9)
* EMDSLRYYYAN | GKKYRPS | SSRDSSGFQVF: 2.83, 5.66, nd (mean 4.25; controls 5 of 9)
* EGDSLRYYYAN | GKNFRPS | SSRTSSGAQVF: 3.03, 3.88, 3.38 (mean 3.43; controls 4 of 9)
* EGDSLRYYYAN | GKVGRPS | SSRDSSGQQVF: 3.26, 4.79, 2.55 (mean 3.54; controls 2 of 9)
* EGDSLRYYYMN | GKNHRPS | SSRDSSGFIVF: nd, nd, nd (controls 2 of 9)
* EGDENRYYYAN | GKNPRPS | SSRDSSGFQVF: 3.70, nd, nd (controls 2 of 9)
* EGFSLRYYYAN | GKNFRPS | SKRDSSGFQVF: 4.41, 4.22, nd (mean 4.32; controls 1 of 9)
* EGESLRYYYAN | GKNHLPS | SSRDSSGFQVF: 2.78, 3.64, 4.40 (mean 3.60; controls 3 of 9)
* RGCSLRYYYAN | GKNERPS | SSRDSSGFQVF: 3.17, 3.67, 2.57 (mean 3.13; controls 3 of 9)
* EHDILRYYYAN | GKNHRPS | SSRDSSGFQVF: 3.62, 4.83, nd (mean 4.23; controls 1 of 9)
* EGDSLRYYYAN | GKEPRPS | SGRDSSGFQVF: nd, 3.92, 3.81 (mean 3.87; controls 3 of 9)
* EGDSLRYHCAN | GKNIRPS | SSRDSSGFQVF: 1.26, 1.26, 0.99 (mean 1.17; controls 2 of 9)
* EGDSLRYYYAN | NYNLRPS | SSRDSSGFQVF: 2.76, 2.55, 2.78 (mean 2.69; controls 5 of 9)
* EGLSLRYYYAN | GKNIRPS | SSRDSSQFQVF: nd, 4.70, nd (controls 1 of 9)
* MGDSLRYYYAN | GKNWRPG | SSRDSSGFQVF: 3.72, 3.69, 3.85 (mean 3.76; controls 3 of 9)
* EGDSLRYSYAN | GKNSRPK | SSRDSSGFQVF: 1.56, 1.76, 1.27 (mean 1.53; controls 4 of 9)
* EGDSLRYYYAN | GKNHRPS | SSRDSSGFQVF: 2.80, 2.78, 2.93 (mean 2.84; controls 3 of 9)
* EGDSLRDYYAP | GKNIRPS | SSRDSSGFQVF: 3.89, 4.07, 3.97 (mean 3.98; controls 4 of 9)
* ELDSLRYYYAN | GKNIRPS | SSRDSSGFWVF: nd, nd, nd (controls 1 of 9)
* EGDSLRYVYAN | GKNWRPS | ISRDSSGFQVF: nd, nd, nd (controls 0 of 9)
* EGDSLRYYYAN | GKNIRPS | SSRDSLDFQVF: 4.10, nd, nd (controls 1 of 9)
* EGDSLRYYYAN | GKNRRPS | SSRDSSGQQMF: 3.43, 2.92, 3.08 (mean 3.14; controls 4 of 9)
* EGDSLRYYYAN | GKNGRPS | GSRRSSGFQVF: 3.56, 3.31, 3.65 (mean 3.51; controls 5 of 9)
* EGDSLRYYEAN | GKNLRPS | SSRISSGFQVF: 1.93, 1.58, 1.25 (mean 1.59; controls 1 of 9)
* LGDSLRYYYAN | GKNCRPS | SSRDQSGFQVF: nd, 4.07, nd (controls 0 of 9)
* EGDSLRDYYAN | GKNSRPS | VSRDSSGFQVF: 2.74, 3.06, 2.35 (mean 2.72; controls 2 of 9)
* EGDSLKYYYAN | GKNKRHS | SSRDSSGFQVF: 3.21, 2.70, 2.70 (mean 2.87; controls 2 of 9)
* EGDSLRYYGAN | GENYRPS | SSRDSSGFQVF: 2.05, 1.93, 1.58 (mean 1.85; controls 2 of 9)
* EGDSLRYYYAN | GKNVRPN | SSRDSLGFQVF: 2.95, 2.84, 2.11 (mean 2.63; controls 3 of 9)
* EGDSERYYYAN | GKNRRPL | SSRDSSGFQVF: 3.83, 5.17, 4.28 (mean 4.42; controls 3 of 9)
* EGDSLRYYYAM | GKNTRPS | SSRGSSGFQVF: 4.80, 5.56, nd (mean 5.18; controls 4 of 9)
* EGDSLRYRYAN | GKNERPS | SSRDSSGFQVF: 0.96, 0.77, 0.14 (mean 0.62; controls 2 of 9)
* EEDSLRYYYAN | GKNARPS | VSRDSSGFQVF: nd, nd, nd (controls 0 of 9)
* EGDSLRYYYAN | GKNPRWS | SSRISSGFQVF: 4.00, nd, nd (controls 2 of 9)
* EGDSLRYPYAN | FKNVRPS | SSRDSSGFQVF: 3.92, 5.84, nd (mean 4.88; controls 4 of 9)
* EGDSLRSYYAN | GKNLRPS | SMRDSSGFQVF: 2.20, 2.37, 1.67 (mean 2.08; controls 4 of 9)
* EGDSLRYYKAN | GKNSRPS | SSRDSKGFQVF: nd, nd, nd (controls 1 of 9)
* EGDSLRYYYAN | GGNYRPS | SSWDSSGFQVF: 3.43, 5.49, 3.37 (mean 4.10; controls 2 of 9)
* EHDSLRYYYAN | GKNYRPL | SSRDSSGFQVF: 3.37, 3.32, 2.64 (mean 3.11; controls 4 of 9)
* EGDSLRYYYAN | GKNSRPS | SSRDSSGFQVF: 1.52, 1.54, 1.11 (mean 1.39; controls 6 of 9)
* EGDSLRFQYAN | GKNIRPS | SSRDSSGFQVF: 0.92, 0.95, 0.23 (mean 0.70; controls 2 of 9)
* EGDSLRYYYAM | GKNTRPS | SSRDSSGFQVS: 3.35, 4.51, 4.42 (mean 4.09; controls 5 of 9)
* EGDSLRYYYAN | GKNARPP | SSRDSSGFQVS: 3.83, 3.05, nd (mean 3.44; controls 6 of 9)
* EGDSLRNYYAN | GKNARPS | SSRFSSGFQVF: 2.73, 3.43, 3.13 (mean 3.10; controls 2 of 9)
* EGDSLRYYYAN | GKNKRPS | SSRDSSGFQVF: 2.97, 3.03, 2.95 (mean 2.98; controls 6 of 9)
* EGDSLRYYYAN | GKNPRPS | SSRDSSGFSVF: 3.22, 3.63, 2.70 (mean 3.18; controls 5 of 9)
* EGDSLRYYYAN | GKNERPS | RCRDSSGFQVF: nd, nd, nd (controls 1 of 9)
* EHDSLRYYYAN | GKNIVPS | SSRDSSGFQVF: 2.78, nd, 3.39 (mean 3.08; controls 2 of 9)
* EGDSLRMYYAN | GKNCRPM | SSRDSSGFQVF: 4.19, nd, nd (controls 3 of 9)

Repeated from above, the 6 best binders with a signal in all replicates:

CDR-L1	CDR-L2	CDR-L3	replicates, log10 nM	mean, log10 nM	signal with controls
EGDSLRYRYAN	GKNERPS	SSRDSSGFQVF	0.96, 0.77, 0.14	0.62	2 of 9
EGDSLRFQYAN	GKNIRPS	SSRDSSGFQVF	0.92, 0.95, 0.23	0.70	2 of 9
EGDSLRYHCAN	GKNIRPS	SSRDSSGFQVF	1.26, 1.26, 0.99	1.17	2 of 9
EGDSLRYYYAN	GKNSRPS	SSRDSSGFQVF	1.52, 1.54, 1.11	1.39	6 of 9
EGDSLRYSYAN	GKNSRPK	SSRDSSGFQVF	1.56, 1.76, 1.27	1.53	4 of 9
EGDSLRYYEAN	GKNLRPS	SSRISSGFQVF	1.93, 1.58, 1.25	1.59	1 of 9

From the AlphaSeq antibody data of Engelhart et al. 2022 (doi:10.1038/s41597-022-01779-4), copy in the FLAb collection.